The other results are listed elsewhere or left out. Some results for these compounds are left out of this collection, so the calls shown say nothing about other tests. Results filed as inconclusive are left out. The rule behind the calls is not given here.

The experiment in a line: growth inhibition of non-replicating M. tuberculosis (AID 488890).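 Note: plate controls were DMSO cells for no effect and high antibiotic wells for full effect.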 The settings on record: Mycobacterium tuberculosis non-replicating, at 25 µM, stronger effect = higher value.
As a reminder, the inhibition is the relative decrease from the control value, in per cent. As to `Cc1ccc(C(=O)NCC2(N3CCCCC3)CCCCC2)cc1`, the inhibition was 40.9%.
The result for `CCN(CC)CC(C)C(C)OC(=O)C(O)(c1ccccc1)c1ccccc1` (centres undefined) reads -0.31%; that for `COc1cc(SC)ccc1C(=O)NCC1(N(C)C)CCCCC1`, -3.47%.
Then `CC(C)N1C(=O)CC2(CCN(CCOC(=O)C(O)(c3ccccc3)c3ccccc3)CC2)C1=O`, with 8.98%; and `CN1[C@@H]2CC[C@H]1CC(OC(=O)C(O)(c1ccccc1)c1ccccc1)C2` (some centres undefined), with -7.45%; and `O=C(NCC1(N2CCCCC2)CCCCC1)c1cc([N+](=O)[O-])ccc1Cl`, with 35.6%.
On to `COc1ccc(C(=O)NCC2(N(C)C)CCCCC2)cc1`, for which the inhibition is 1.78%.
Then `CCN1CCCC(OC(=O)C2(O)c3ccccc3C=Cc3ccccc32)C1` (centres undefined), with -1.55%.
The result for `Cc1cc(C(=O)NCC2(N3CCCCC3)CCCCC2)ccc1[N+](=O)[O-]` reads 7.46%; that for `O=C(NCC1(N2CCCCC2)CCCCC1)c1cccc(Br)c1`, 10%; that for `C=CCN1CCN(CCOC(=O)C(O)(c2ccccc2)c2ccccc2)CC1`, -2.8%.
The result for `O=C(NCC1(N2CCCCC2)CCCCC1)c1cc(F)c(F)cc1Cl` reads -6.53%.
On to `Cc1ccccc1C(=O)NCC1(N2CCCCC2)CCCCC1`, for which the inhibition came to 31.3%.
As for `CN(C)c1ccc(C(=O)NCC2(N(C)C)CCCCC2)cc1`, the inhibition was -7.01%.
For `CN(C)C1CCCC1OC(=O)C(O)(c1ccccc1)c1ccccc1` (centres undefined), the inhibition was -3.29%.
As for `O=C(NCC1(N2CCCCC2)CCCCC1)c1cccc(Cl)c1`, the inhibition was -4.89%.
Then `COc1cccc(C(=O)NCC2(N3CCCCC3)CCCCC2)c1`, with 17.3%; and `COc1ccc(Cl)cc1C(=O)NCC1(N(C)C)CCCCC1`, with -3.35%; and `COc1cc(C(=O)NCC2(N(C)C)CCCCC2)c([N+](=O)[O-])cc1OC`, with -1.36%.
Regarding `CN(C)C1(CNC(=O)c2ccc(Br)cc2)CCCCC1`, the inhibition worked out at 68.5%.
Consider `CC(C)Oc1ccc(C(=O)NCC2(N(C)C)CCCCC2)cc1`, for which the inhibition was 0.79%.
The result for `CN(C)c1cccc(C(=O)NCC2(N(C)C)CCCCC2)c1` reads -20.4%; that for `COc1ccc(Br)c(C(=O)NCC2(N3CCCCC3)CCCCC2)c1`, 48%.
Then `O=C(OC1CN2CCC1CC2)C(CO)(c1ccccc1)c1ccccc1` (centres undefined), with -9.76%.

The values are drawn from PubChem BioAssay AID488890 (Southern Research Specialized Biocontainment Screening …, 2010).
